Results reported in patent publication US12642862B2, “Anti-CD79B antibody-drug conjugate, and preparation method therefor and pharmaceutical use thereof” (TUOJIE BIOTECH (SHANGHAI) CO., LTD., priority 2020, dated 2026).

Assays:
[1] = tested on: DoHH2 cell; assay: Cell killing assay of humanized antibodies, DoHH2; type: cell-based, human
From the text: (§1) The above antibodies were cloned, expressed and purified, and the humanized antibodies hAb015-10 and hAb017-10 with the best activity were selected by ELISA, FACS, SPR and other assays.

[2] = target: T1, Mouse CD79B-His protein (Mus musculus, UniProt P15530); assay: Interspecific cross-reactivity, mouse CD79B; type: binding
T1 construct: His
T1 sequence (P15530 26-228): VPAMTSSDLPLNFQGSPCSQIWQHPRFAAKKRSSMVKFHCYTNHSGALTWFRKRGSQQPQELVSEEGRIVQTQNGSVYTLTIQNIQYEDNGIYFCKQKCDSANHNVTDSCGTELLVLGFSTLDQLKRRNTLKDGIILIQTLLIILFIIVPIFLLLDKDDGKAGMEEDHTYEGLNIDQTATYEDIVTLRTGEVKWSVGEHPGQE
From the text: as §1

[3] = tested on: WSU-DLCL2 cell; assay: Cell killing assay of humanized antibodies, WSU-DLCL2; type: cell-based, human
From the text: as §1

[4] = Thermal stability test (DSC, DLS); type: physicochemical
From the text: as §1

[5] = tested on: Raji cell; assay: Cell killing assay of humanized antibodies, Raji; type: cell-based
From the text: as §1

[6] = tested on: Monkey CD79B-His protein; assay: Interspecific cross-reactivity, monkey CD79B; type: binding
From the text: as §1

[7] = target: T2, human CD79B (Homo sapiens, UniProt P40259); assay: Biacore affinity assay of CD79B antibodies and ADCs; design: His; purchased Sino Biological 29750-H08H; settings: binding force to human CD79B protein
T2 sequence (P40259 29-159 limits assumed): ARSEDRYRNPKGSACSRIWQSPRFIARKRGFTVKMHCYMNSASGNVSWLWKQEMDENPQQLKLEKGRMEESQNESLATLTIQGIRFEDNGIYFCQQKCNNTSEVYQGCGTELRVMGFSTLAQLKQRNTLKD

[8] = tested on: DOHH-2 cells highly expressing human CD79B protein; assay: Endocytosis of anti-CD79B antibodies in DOHH-2 cells; type: cell-based
Method: In order to determine whether the CD79B antibodies of the present disclosure can be endocytosed into cells with human CD79B after binding to human CD79B, a cell endocytosis experiment was performed with DOHH-2 cells (DSMZ, ACC 47) highly expressing human CD79B protein to assess the endocytosis ability of the antibodies.
The cells were collected by low temperature centrifugation at 4° C. for 5 min at 1000 rpm during the experiment. The cells were resuspended in 10-15 mL of FACS buffer pre-cooled on ice. The FACS buffer was composed of phosphate buffered saline (PBS), pH 7.4, with 2% fetal bovine serum (FBS). Throughout the experiment, FACS buffer was pre-cooled on ice. The cells were counted and centrifuged, and added to a 96-well plate at 300,000 cells/well. After centrifugation, the supernatant was discarded, and 12.5 μg/mL Fc blocking solution (BD, Cat No.: 564220) was added at 100 μL/well. Blocking was performed at room temperature for 10 min. Then, 20 μg/mL test CD79B antibody was added to the corresponding wells, and the plate was incubated at 4° C. for 1 h away from the light. The plate was washed twice with a pre-cooled PBS buffer to remove unbound antibodies. A complete cell culture medium (RPMI 1640 medium with 10% fetal bovine serum) was added, and the plate was incubated at 37° C. with 5% CO2 for 0 h, 1 h, 2 h and 4 h. After centrifugation, the supernatant was discarded, 2% PFA buffer solution was added at 100 μL/well to resuspend the cells, and the plate was left to stand for 10 min. Then, the plate was washed 3 times with an FACS buffer, and 100 μL of secondary antibody solution (fluorescent labeled goat anti-human secondary antibody: diluted in a 1:250 ratio, 2 μg/mL, Biolegend, Cat #409304) was added. The plate was incubated at 4° C. for half an hour away from the light. A pre-cooled PBS buffer was added, and the supernatant was discarded after centrifugation at 4° C., which were repeated three times. The cells were resuspended in an FACS buffer at 200 μL/well and detected using a flow cytometer (BD FACS Calibur).

[9] = tested on: DoHH2 cell; assay: FACS assay of humanized anti-CD79B antibodies; type: binding, human
From the text: as §1

[10] = target: T3, Human CD79B-His protein (Homo sapiens, UniProt P40259); assay: Interspecific cross-reactivity, human CD79B; type: binding
T3 construct: His tag (HHHHHH) (C); made in house; host or cells: 293F cells
T3 sequence (P40259 29-159): T2 sequence (P40259 29-159 limits assumed)
From the text: as §1

[11] = target: T3, Human CD79B-His protein; assay: SPR assay of anti-CD79B antibodies; type: binding
Method: 7) Assay on anti-human CD79B mouse monoclonal antibodies by SPR The affinity of the anti-human CD79B antibody for its antigen human CD79B-His was assayed by surface plasmon resonance (SPR) technology. The antigen human CD79B-His protein was immobilized to a CM5 chip. The coupling level was set at 100 RU. The running buffer was HBS-EP+ (10 mM HEPES, 150 mM NaCl, 3 mM EDTA, 0.05% surfactant P20). The diluted antibodies were allowed to flow through the experimental and control channels at a flow rate of 30 μL/min for 3 min and dissociated for 5 min. Regeneration buffer (10 mM Glycine, pH 1.5) was then run at a flow rate of 30 μL/min for 30 s. Data were analyzed using Biacore 8K software.
as §1

[12] = target: T3, Human CD79B-His protein; assay: ELISA assay of humanized anti-CD79B antibodies; type: binding
From the text: as §1

B1: hAb015-10: humanized anti-CD79B antibody from mAb015; heavy chain SEQ ID NO: 28, light chain SEQ ID NO: 29 (antibody)
heavy: EVQLVQSGAEVKKPGSSVKVSCKASGSSFSSYGINWVKQAPGQGLEWIGEIFPRSGNTYYNEKFEGRATLTADKSTSTAYMELRSLRSEDTAVYYCAKGDLGDFDYWGQGTTVTVSSASTKGPSVFPLAPSSKSTSGGTAALGCLVKDYFPEPVTVSWNSGALTSGVHTFPAVLQSSGLYSLSSVVTVPSSSLGTQTYICNVNHKPSNTKVDKKV[letters of human IgG1 Fc not shown]
light: DFVMTQTPLSLPVTPGEPASISCRSSQSIVHSDGNTYFEWYLQKPGQSPKLLIYKVSNRFSGVPDRFSGSGSGTDFTLKISRVEAEDVGVYYCFQGSHVPWTFGGGTKVEIKRTVAAPSVFIFPPSDEQLKSGTASVVCLLNNFYPREAKVQWKVDNALQSGNSQESVTEQDSKDSTYSLSSTLTLSKADYEKHKVYACEVTHQGLSSPVTKSFNRGEC
modifications: Heavy chain of hAb015-10 humanized antibody; Light chain of hAb015-10 humanized antibody
IC50 [1]: 0.004 nM
Interspecific cross-reactivity [2]: No
IC50 [3]: 0.013 nM
Thermal stability test DLS (Tagg, ° C.) ([4]; DLS): 62 °C
Thermal stability test DSC (Tm, ° C.) ([4]; DSC): 60 °C
IC50 [5]: > 100 nM
Interspecific cross-reactivity [6]: No
EC50 [7]: 0.38 nM
endocytosis by DOHH-2 cells at 4° C. ([8]; 20 μg/mL antibody, incubation at 4° C.): cannot be endocytosed by DOHH-2 cells
endocytosis by DOHH-2 cells at 37° C. after 1 h ([8]; 20 μg/mL antibody, incubation at 37° C., 1 h): most of the antibodies are already endocytosed by DOHH-2 cells
endocytosis, overall judgement ([8]; DOHH-2 cells): good endocytosis
time at which antibody endocytosis reaches a maximum ([8]; incubation at 37° C.): 4 h
EC50 [9]: 0.4 nM
Interspecific cross-reactivity [10]: Yes
Kd ([11]; Human CD79B-His protein): 1.5 nM
affinity and related functions compared with the mouse monoclonal antibodies ([11]; by ELISA, FACS, SPR and other assays): retained similar affinity and related functions to the mouse monoclonal antibodies
EC50 [12]: 0.05 nM
